Assay results: PMC10095301, “To Target or Not to Target Schistosoma mansoni Cyclic Nucleotide Phosphodiesterase 4A?” (International Journal of Molecular Sciences, 2023)

Tested on: Nc1ncnc2c1ncn2[C@@H]1O[C@@H]2COP(=O)(O)O[C@H]2[C@H]1O
Test: purified protein, by the assay type
Conditions: other: Michaelis-Menten, n = 5; pH 7.5; 25.0 °C

SmPDE4A_CD (Schistosoma mansoni) was tested, and the Km was 2.70 ± 0.33 µM.
